Our source for the increase of the relative FRET efficiency (PS1-Syt1 proximity) by KCl against no KCl, scramble peptide pre-treated cells and decrease in the PS1-Syt1 interaction in 9 month old Tg2576 AD mice values is article PMC5307796.

Assay [1] addresses Synaptotagmin 1, endogenous in mouse neurons and mouse brain (mouse (endogenous in primary neurons and brain)) (UniProt P46096). The assay can be described thus: FRET or BRET; antibody-based FLIM on fixed primary neurons (anti-PS1 NT and anti-Syt1) after 15 min 50 mM KCl; pre-treated 2 h with 5 μM scramble or PS1-LNT peptide. On the technique in general: Bioluminescence resonance energy transfer reports proximity on the nanometre scale.

Assay [2] shares this target. Description: not stated; unpublished data on mouse brain (normal aging; 9 month old Tg2576 mice).

As to “Presenilin 1, endogenous in mouse neurons and mouse brain (from UniProt P49769 1-467) (natural protein)”, the increase of the relative FRET efficiency (PS1-Syt1 proximity) by KCl against no KCl, scramble peptide pre-treated cells in assay [1] is 29.5%. The same substance yielded a decrease in the PS1-Syt1 interaction in 9 month old Tg2576 AD mice in assay [2] of 30%.
